According to ChEMBL document CHEMBL1131110, “Deoxyadenosine bisphosphate derivatives as potent antagonists at P2Y1 receptors” (J Med Chem, 1998):
Activity calls are given as the source filed them. The rule behind the calls is not given here.

The chains behind the UniProt entries cited, without tags or fusion partners. Where a name states a change or a piece, a line headed by the entry shows the natural chain unless it says otherwise.
UniProt P49652: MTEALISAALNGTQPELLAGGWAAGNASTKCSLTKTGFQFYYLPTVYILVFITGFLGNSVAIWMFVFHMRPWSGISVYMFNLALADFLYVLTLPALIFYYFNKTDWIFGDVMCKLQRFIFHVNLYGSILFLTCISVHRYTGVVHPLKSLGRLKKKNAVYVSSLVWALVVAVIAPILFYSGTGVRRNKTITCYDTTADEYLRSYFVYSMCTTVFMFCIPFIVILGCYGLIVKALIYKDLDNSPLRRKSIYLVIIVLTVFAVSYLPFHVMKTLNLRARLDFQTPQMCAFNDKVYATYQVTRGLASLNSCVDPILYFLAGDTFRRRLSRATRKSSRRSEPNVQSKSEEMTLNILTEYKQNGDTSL

Target: P2Y purinoceptor 1 (Meleagris gallopavo) (UniProt P49652)
Test: Agonist activity at P2Y1 receptor measured as capacity to stimulate phospholipase C in turkey erythrocyte membranes; NE=No effect
Type: functional, cell membranes
In short: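 Turkey erythrocytes labelled with 2-[3H]myo-inositol in inositol-free DMEM for 18–24 h at 37 °C, 5% CO2. Ghosts made by hypotonic lysis. Labelled ghosts (~175 μg protein) incubated 5 min at 30 °C with 1 μM GTPγS and test nucleotide at pH 7.0 (HEPES, KCl, CaCl2, MgSO4, EGTA). Total [3H]inositol phosphates measured by anion-exchange chromatography. EC50 from four-parameter logistic fit. Efficacy is relative to a maximal 2-MeSATP response in the same experiment.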

Compound: CNc1ncnc2c1ncn2[C@H]1C[C@H](OP(=O)(O)O)[C@@H](COP(=O)(O)O)O1
- Max increase: inactive
